In article PMC3954497 (Journal of Medicinal Chemistry, 2014) one finds inhibition data, which are given here for 1 molecule.

Sequences of proteins named here, by UniProt entry; tags and fusion partners are left off. Residues count along the entry.
UniProt Q63380, 1-617: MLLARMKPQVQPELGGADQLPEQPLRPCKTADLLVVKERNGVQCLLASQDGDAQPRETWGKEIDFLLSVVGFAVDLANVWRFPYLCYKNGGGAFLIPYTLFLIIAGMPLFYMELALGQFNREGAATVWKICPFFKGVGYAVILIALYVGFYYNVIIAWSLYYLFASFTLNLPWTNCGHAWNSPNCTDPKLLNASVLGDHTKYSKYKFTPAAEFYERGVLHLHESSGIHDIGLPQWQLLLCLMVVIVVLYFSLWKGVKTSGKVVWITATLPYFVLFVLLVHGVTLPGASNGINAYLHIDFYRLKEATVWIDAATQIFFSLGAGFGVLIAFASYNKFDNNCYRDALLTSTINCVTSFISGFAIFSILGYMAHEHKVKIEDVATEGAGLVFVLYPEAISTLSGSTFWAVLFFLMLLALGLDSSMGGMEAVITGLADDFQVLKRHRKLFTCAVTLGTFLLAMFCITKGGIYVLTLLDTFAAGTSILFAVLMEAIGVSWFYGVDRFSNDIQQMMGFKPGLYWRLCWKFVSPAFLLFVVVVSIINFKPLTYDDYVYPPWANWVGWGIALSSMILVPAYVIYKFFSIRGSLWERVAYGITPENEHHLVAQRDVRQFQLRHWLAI

This experiment concerns the target NET (Rattus norvegicus, UniProt Q63380). The experiment is described as follows: biochemical. Conditions: 3 h, read-out: Ki [SE interval] NET.

For the molecule `NC(=O)C[S+]([O-])C(c1ccccc1)c1ccccc1` (racemic) [(±)-1, reference compound], the inhibition at 100 µM was less than 50%.
